How the values were obtained:
Assay type in all cases: cell-based
[1] = tested on: cervical adenocarcinoma HeLa cells; test: Cell viability neutral red uptake assay, HeLa; settings: Homo sapiens, read-out: IC50 values ± SD in neutral red uptake assay
[2] = tested on: normal fibroblasts (dermal fibroblasts CCD25Sk); test: Cell viability MTT assay, fibroblasts; settings: Homo sapiens, Fibroblast, read-out: IC50 values ± SD in MTT assay
[3] = tested on: endometrial adenocarcinoma Ishikawa cells; test: Cell viability neutral red uptake assay, Ishikawa; settings: Homo sapiens, read-out: IC50 values ± SD in neutral red uptake assay
[4] = tested on: endometrial adenocarcinoma Ishikawa cells; test: Cell viability MTT assay, Ishikawa; settings: Homo sapiens, read-out: IC50 values ± SD in MTT assay
[5] = tested on: cervical adenocarcinoma HeLa cells; test: Cell viability MTT assay, HeLa; settings: Homo sapiens, read-out: IC50 values ± SD in MTT assay
[6] = tested on: normal fibroblasts (dermal fibroblasts CCD25Sk); test: Cell viability neutral red uptake assay, fibroblasts; settings: Homo sapiens, Fibroblast, read-out: IC50 values ± SD in neutral red uptake assay

Structure (SMILES): COc1cc(O)c2c(=O)c(O)c(-c3ccc(O)cc3)oc2c1 [rhamnocitrin]
- IC50 ([1]; 24 h): > 50 µM
- IC50 ([1]; 48 h): 41.2 ± 3.5 µM
- IC50 ([2]; 24 h): > 50 µM
- IC50 ([2]; 48 h): > 50 µM
- IC50 ([3]; 24 h): > 50 µM
- IC50 ([3]; 48 h): 41.7 ± 2.5 µM
- IC50 ([4]; 24 h): > 50 µM
- IC50 ([4]; 48 h): 42.5 ± 2.6 µM
- IC50 ([5]; 24 h): > 50 µM
- IC50 ([5]; 48 h): 37 ± 2.1 µM
- IC50 ([6]; 24 h): > 50 µM
- IC50 ([6]; 48 h): > 50 µM

— PMC10512030, “Prolidase-proline oxidase axis is engaged in apoptosis induction by birch buds flavonol santin in endometrial adenocarcinoma cell line” (Frontiers in Molecular Biosciences, 2023)
